Assay results published in PubChem BioAssay (Tox21).
“And” between values parts separate entries of the source, which are not always exact repeats. Equal entries are not always repeated. The list shows a part of the results, in another mix than the full data. Inconclusive results are not listed. The source made the active and inactive calls. The call rests on the fitted dose curve; in most records, active means well fitted activation curve with a large enough effect in the signal ratio in the repeat runs (not every such curve was filed as active); inconclusive means weak or mixed curves; inactive means flat fitted curve, though single readings scatter; the % refers to the signal ratio.

Experiment: p53 small molecule agonists, cell-based qHTS assay (AID 1963582)
Details: HCT-116 p53RE-bla reporter, beta-lactamase FRET ratio, 16 h; at 13.5 µM (top of the series)
Description: National Center for Advancing Translational Sciences [NCATS]
Division of Preclinical Innovation [DPI]
U.S. Environmental Protection Agency [EPA]
National Institutes of Environmental Health Sciences [NIEHS]
National Toxicology Program [NTP]
U.S. Food and Drug Administration [FDA]
p53, a tumor suppressor protein, is activated following cellular insult, including DNA damage and other cellular stresses. The activation of p53 regulates cell fate by inducing DNA repair, cell cycle arrest, apoptosis, or cellular senescence. The activation of p53, therefore, is a good indicator of DNA damage and other cellular stresses. […] The activation of the reporter gene under culture conditions can be detected by fluorescence intensity. This cell line was used to screen the Tox21 10K compound library in a 1536-well plate format and to identify agonists that activate the p53 signaling pathway.
Tox21 Assay Protocol Summary:
The p53RE-bla cells were dispensed at 4,000 cells/5 ul/well in 1536-well black wall/clear bottom plates using a Multidrop dispenser. After the assay plates were incubated at a 37 C/5% CO2 incubator for 5 hours, 23 nL of compounds dissolved in DMSO, positive controls or DMSO only was transferred to the assay plate by a pin tool. The plates were incubated at 37 C for 16 hours. After 1 uL of LiveBLAzerTM B/G FRET substrate was added using a Flying Reagent Dispenser, the plates were incubated at room temperature for 2 hours, and fluorescence intensity was measured by an Envision plate reader.
On the % scale 0 is the no-effect control and ±100 the full control effect.

Which activation does the source give for CCC(C)(OOC(C)(C)C)OOC(C)(C)C here?
The activation was inactive: 1.63%.

Same assay, conditions: HCT-116 p53RE-bla reporter, beta-lactamase FRET ratio, 16 h; at 30.3 µM (top of the series)

Which activation does the source give for NC(=O)Nc1ccc([As](=O)(O)O)cc1 here?
Its activation is inactive: 1.22%.

Which activation does the source give for CN(C(=O)Cc1ccc(Cl)c(Cl)c1)[C@H]1CC[C@@]2(CCCO2)C[C@@H]1N1CCCC1 here?
Its activation is inactive: -0.542%.

With CN(C(=O)Cc1ccccc1)[C@H]1CC[C@@]2(CCCO2)C[C@@H]1N1CCCC1 as the compound, how does the activation read?
Its activation is inactive: -3.22%.

Same assay, conditions: HCT-116 p53RE-bla reporter, beta-lactamase FRET ratio, 16 h; at 66 µM (top of the series)

Which activation does the source give for O=C(Cl)OCCOC(=O)Cl here?
Its activation is inactive: -0.32%.

For NC(=O)Nc1ccc([As](=O)(O)O)cc1, which activation is on record?
Its activation is inactive: -2.99%.

For O=[N+]([O-])c1ccc([N+](=O)[O-])cc1, which activation is on record?
The activation was inactive: -0.689%.

Which activation does the source give for COP(=S)(Cl)OC here?
Its activation is inactive: -6.1%.

With CCNC(C)Cc1ccc2c(c1)OCO2 (stereo not given) as the compound, how does the activation read?
The activation was inactive: 3.46%.

With O=C(Cl)Oc1ccccc1 as the compound, how does the activation read?
The activation was inactive: -6.22%.

With CCCCOP(OCCCC)OCCCC as the compound, how does the activation read?
Its activation is inactive: -0.106%.

Which activation does the source give for CCOP(=S)(CC)Sc1ccccc1 (stereo not given) here?
Its activation is inactive: -0.165%.

For COC(=O)Cl, which activation is on record?
Its activation is inactive: 0.558%.

For CCCCO[P+](=O)OCCCC, which activation is on record?
Its activation is inactive: -3.17% and inactive: -1.48%.

For O=P(Cl)(Cl)c1ccccc1, which activation is on record?
The activation was inactive: 0.487%.

For CN(C(=O)Cc1cccc2occc12)[C@H]1CC[C@@]2(CCCO2)C[C@@H]1N1CCCC1, which activation is on record?
Its activation is inactive: -0.229%.

With O=P(Cl)(Oc1ccccc1)Oc1ccccc1 as the compound, how does the activation read?
The activation was inactive: 0.0921%.

For CC(C)CCCCCCCOP(OCCCCCCCC(C)C)Oc1ccccc1, which activation is on record?
Its activation is inactive: -3.36%.

With CCCCC(CC)CO[P+](=O)OCC(CC)CCCC (stereo not given) as the compound, how does the activation read?
The activation was inactive: -3.05%.

For ClP(Cl)c1ccccc1, which activation is on record?
The activation was inactive: -2.21%.
